This data set is described as follows: Body weight of mdx mice measured weekly over the treatment period. The conditions noted are these: three concentrations (1.0, 2.5, 5.0 mg/kg IP), weeks of age 5-10.

On to `Nc1cccc2c(=O)[nH][nH]c(=O)c12.[Na]` [5-amino-2,3-dihydro-1,4-phthalazinedione sodium salt], for which the “body weight over the treatment period versus untreated mdx mice and wild type mice” value is listed as “no differences”.
